{"source": "paper PMC7942396", "about": "“Drug Repurposing Screen for Compounds Inhibiting the Cytopathic Effect of SARS-CoV-2” (Frontiers in Pharmacology, 2021)", "origin": "cited, not measured here", "conditions": "human; Single dose 600 mg PO; ref Winstanley et al. (1987); cited from earlier work", "data": [{"smiles": "CCN(CC)Cc1cc(Nc2ccnc3cc(Cl)ccc23)ccc1O.Cl.Cl.O.O", "note": "[Amodiaquine dihydrochloride, reference compound]", "values": [{"measurement": "Elimination T1/2", "result": "5.2 ± 1.7", "unit": "h"}]}]}
